target: Kappa-type opioid receptor (Homo sapiens, UniProt P41145); assay: Displacement of [3H]U-69593 from cloned human kappa opioid receptor

Sequences of proteins named here, by UniProt entry; tags and fusion partners are left off. A change or cut given only in a name is not applied to a line headed by its entry.
UniProt P41145: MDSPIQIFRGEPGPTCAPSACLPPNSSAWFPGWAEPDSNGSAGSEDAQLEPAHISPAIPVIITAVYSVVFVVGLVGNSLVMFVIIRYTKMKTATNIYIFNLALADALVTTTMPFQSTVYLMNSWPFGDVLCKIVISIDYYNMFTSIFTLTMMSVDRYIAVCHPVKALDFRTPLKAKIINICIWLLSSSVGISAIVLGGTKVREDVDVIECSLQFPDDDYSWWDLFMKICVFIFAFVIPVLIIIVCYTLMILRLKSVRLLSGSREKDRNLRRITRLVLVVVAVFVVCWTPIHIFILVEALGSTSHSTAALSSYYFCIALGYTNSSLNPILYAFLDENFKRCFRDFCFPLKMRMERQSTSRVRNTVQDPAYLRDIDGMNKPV
UniProt P41143, whole entry: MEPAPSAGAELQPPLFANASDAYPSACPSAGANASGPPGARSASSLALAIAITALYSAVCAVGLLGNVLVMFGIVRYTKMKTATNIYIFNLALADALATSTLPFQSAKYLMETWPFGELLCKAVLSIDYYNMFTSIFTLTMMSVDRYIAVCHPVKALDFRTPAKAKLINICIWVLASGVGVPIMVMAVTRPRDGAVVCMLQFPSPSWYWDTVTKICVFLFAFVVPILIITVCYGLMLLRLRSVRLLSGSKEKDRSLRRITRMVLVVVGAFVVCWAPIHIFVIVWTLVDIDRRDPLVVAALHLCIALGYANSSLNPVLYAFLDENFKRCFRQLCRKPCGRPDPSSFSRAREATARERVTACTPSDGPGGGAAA

| Structure (SMILES) | Ki [nM] |
| --- | --- |
| CCOC(=O)N1CCC(c2ccccc2)(c2nccn2Cc2ccccc2)CC1 | 171 |

target: Delta-type opioid receptor (Homo sapiens, UniProt P41143); assay: Displacement of [3H]DPDPE from cloned human delta opioid receptor

| Structure (SMILES) | Ki [nM] |
| --- | --- |
| CCOC(=O)N1CCC(c2ccccc2)(c2nccn2Cc2ccc(OC)cc2)CC1 | 12 |
| CCOC(=O)N1CCC(c2ccccc2)(c2nccn2Cc2cccc(F)c2)CC1 | 5.9 |
| COCC(=O)N1CCC(c2ccccc2)(c2nccn2Cc2ccc(C(=O)OC)cc2)CC1 | 5.9 |
| CC(=O)N1CCC(c2ccccc2)(c2nccn2Cc2ccccc2)CC1 | 37 |
| CCC(=O)N1CCC(c2ccccc2)(c2nccn2Cc2ccccc2)CC1 | 29 |
| COC(=O)c1ccc(Cn2ccnc2C2(c3ccccc3)CCN(C(=O)c3ccccc3)CC2)cc1 | 0.93 |
| CC(C)(C)C(=O)N1CCC(c2ccccc2)(c2nccn2Cc2ccccc2)CC1 | 37 |
| O=C(Cc1ccccc1)N1CCC(c2ccccc2)(c2nccn2Cc2ccccc2)CC1 | 23 |
| O=C(c1ccccc1)N1CCC(c2ccccc2)(c2nccn2Cc2ccccc2)CC1 | 2.3 |
| COC(=O)N1CCC(c2ccccc2)(c2nccn2Cc2ccccc2)CC1 | 19 |
| CCOC(=O)N1CCC(c2ccccc2)(c2nccn2Cc2ccccc2)CC1 | 3.7 |
| CCCCOC(=O)N1CCC(c2ccccc2)(c2nccn2Cc2ccccc2)CC1 | 9.3 |
| O=C(OCc1ccccc1)N1CCC(c2ccccc2)(c2nccn2Cc2ccccc2)CC1 | 12 |
| CCOC(=O)N1CCC(c2ccccc2)(c2nccn2Cc2cccc(OC)c2)CC1 | 29 |
| CCOC(=O)N1CCC(c2ccccc2)(c2nccn2Cc2ccc(O)cc2)CC1 | 4.6 |
| CCOC(=O)N1CCC(c2ccccc2)(c2nccn2C(C)c2ccccc2)CC1 (stereo not given) | 1.2 |
| CC(C)(C)OC(=O)N1CCC(c2ccccc2)(c2nccn2Cc2ccccc2)CC1 | 9.3 |
| COCC(=O)N1CCC(c2ccccc2)(c2nccn2Cc2ccccc2)CC1 | 7.4 |
| Cc1cc(C)cc(C(=O)N2CCC(c3ccccc3)(c3nccn3Cc3ccccc3)CC2)c1 | 37 |
| CCOC(=O)N1CCC(c2ccccc2)(c2nccn2Cc2ccc(C(=O)OC)cc2)CC1 | 0.74 |
| CCCOC(=O)N1CCC(c2ccccc2)(c2nccn2Cc2ccccc2)CC1 | 2.9 |
| CC(C)OC(=O)N1CCC(c2ccccc2)(c2nccn2Cc2ccccc2)CC1 | 1.8 |
| COCC(=O)N1CCC(c2ccccc2)(c2nccn2C(C)c2ccccc2)CC1 (stereo not given) | 3.7 |
| CC(c1ccccc1)n1ccnc1C1(c2ccccc2)CCN(C(=O)c2ccccc2)CC1 (stereo not given) | 2.3 |

From ChEMBL document CHEMBL1149528, “4-Phenyl-4-[1H-imidazol-2-yl]-piperidine derivatives as non-peptidic selective delta-opioid agonists with potential anxiolytic/antidepressant properties. Part 2” (Bioorg Med Chem Lett, 2007)
